Earlier results as cited in publication PMC8841740, “Fluorescent Ligand-Based Discovery of Small-Molecule Sulfonamide Agonists for GPR120” (Frontiers in Chemistry, 2022).

System: GPR120
Conditions: cited from earlier work

Cc1ccc(-c2ccc(F)cc2COc2ccc(CCC(=O)O)cc2)cc1 [TUG-891]
pEC50 (Literature): 7.02 ± 0.09^15
